1 compound from ChEMBL document CHEMBL4673248, “Discovery and Characterization of BAY 1214784, an Orally Available Spiroindoline Derivative Acting as a Potent and Selective Antagonist of the Human Gonadotropin-Releasing Hormone Receptor as Proven in a First-In-Human Study in Postmenopausal Women” (J Med Chem, 2020) can be followed below.

Format in all cases: cell-based
What all share (settings): filed as antagonist

Assay [1] deals with T1, Gonadotropin-releasing hormone receptor (Homo sapiens) (UniProt P30968).
T1 sequence (whole entry): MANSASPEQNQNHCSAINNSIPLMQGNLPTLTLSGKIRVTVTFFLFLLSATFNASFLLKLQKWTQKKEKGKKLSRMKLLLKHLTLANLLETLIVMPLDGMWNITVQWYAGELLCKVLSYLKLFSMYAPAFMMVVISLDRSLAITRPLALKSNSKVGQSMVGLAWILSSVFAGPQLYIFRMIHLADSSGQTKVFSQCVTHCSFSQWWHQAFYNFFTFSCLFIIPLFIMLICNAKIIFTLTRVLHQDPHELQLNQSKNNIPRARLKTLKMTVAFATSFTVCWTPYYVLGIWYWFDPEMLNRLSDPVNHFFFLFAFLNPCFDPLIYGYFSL
Description: Inhibition of Tag-lite green-labeled agonist binding to terbium fluorophore-labeled human N-terminal SNAP-tag GnRh receptor expressed in HEK293 cells assessed as residence time by TR-FRET assay. The procedure, abridged:
(§1)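 Kinetic competition at rt: tracer at 10 nM final with compound, Tb-hGnRH-R cells injected in the reader. TR-FRET read at time zero and every 21 s. Baseline-subtracted traces fitted with the Motulsky–Mahan competitive kinetics model. At least two independent experiments, two replicates each.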

Assay [2] concerns the target T1, Gonadotropin-releasing hormone receptor (Homo sapiens). Description: Inhibition of Tag-lite green-labeled agonist binding to terbium fluorophore-labeled human N-terminal SNAP-tag GnRh receptor expressed in HEK293 cells assessed as association rate constant by TR-FRET assay. The procedure, abridged:
as §1

Assay [3] has the same target. Briefly: Inhibition of Tag-lite green-labeled agonist binding to terbium fluorophore-labeled human N-terminal SNAP-tag GnRh receptor expressed in HEK293 cells assessed as dissociation rate constant by TR-FRET assay. The procedure, abridged:
as §1

Take `O=C(NCc1ncc(C(F)(F)F)cc1Cl)c1ccc2c(c1)C1(CCS(=O)(=O)CC1)[C@H](C1CC1)N2S(=O)(=O)c1ccc(F)cc1` [BAY-784]: in assay [1], the TIME amounted to 0.117 h. Moreover, the K in assay [2] was 4.2 10^4/M/s; in assay [3] it was 4.13 10^-3/s.
